Values quoted from earlier work as cited in PMC3265362 (Biochemical Journal, 2008).

Target: T1, human QR2 (Homo sapiens, UniProt P16083)
T1 sequence (P16083 1-231): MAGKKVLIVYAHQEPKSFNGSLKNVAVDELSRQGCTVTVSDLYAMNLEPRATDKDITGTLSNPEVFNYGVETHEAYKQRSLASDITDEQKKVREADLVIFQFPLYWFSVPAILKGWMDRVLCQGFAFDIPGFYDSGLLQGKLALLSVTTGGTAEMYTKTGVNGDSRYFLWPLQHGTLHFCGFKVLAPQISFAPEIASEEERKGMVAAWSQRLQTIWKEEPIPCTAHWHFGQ
Conditions: read-out: IC50 value, Mammalian cells; cytosolic fraction of mammalian cell lines overexpressing human QR2, dihydrobenzylnicotinamide as co-substrate; ref [37]; cited from earlier work

## COC(=O)Nc1ccc2[nH]cc(CCNC(C)=O)c2c1 [MCA-NAT, 5-methoxycarbonylamino-N-acetyltryptamine]
  IC50: 295 ± 19 µM
